ChEMBL document CHEMBL1133420, “Parallel synthesis of a series of subtype-selective NMDA receptor antagonists” (Bioorg Med Chem Lett, 2000)

By UniProt entry, the sequences of proteins in these tests, tags left out.
UniProt Q12879, whole entry: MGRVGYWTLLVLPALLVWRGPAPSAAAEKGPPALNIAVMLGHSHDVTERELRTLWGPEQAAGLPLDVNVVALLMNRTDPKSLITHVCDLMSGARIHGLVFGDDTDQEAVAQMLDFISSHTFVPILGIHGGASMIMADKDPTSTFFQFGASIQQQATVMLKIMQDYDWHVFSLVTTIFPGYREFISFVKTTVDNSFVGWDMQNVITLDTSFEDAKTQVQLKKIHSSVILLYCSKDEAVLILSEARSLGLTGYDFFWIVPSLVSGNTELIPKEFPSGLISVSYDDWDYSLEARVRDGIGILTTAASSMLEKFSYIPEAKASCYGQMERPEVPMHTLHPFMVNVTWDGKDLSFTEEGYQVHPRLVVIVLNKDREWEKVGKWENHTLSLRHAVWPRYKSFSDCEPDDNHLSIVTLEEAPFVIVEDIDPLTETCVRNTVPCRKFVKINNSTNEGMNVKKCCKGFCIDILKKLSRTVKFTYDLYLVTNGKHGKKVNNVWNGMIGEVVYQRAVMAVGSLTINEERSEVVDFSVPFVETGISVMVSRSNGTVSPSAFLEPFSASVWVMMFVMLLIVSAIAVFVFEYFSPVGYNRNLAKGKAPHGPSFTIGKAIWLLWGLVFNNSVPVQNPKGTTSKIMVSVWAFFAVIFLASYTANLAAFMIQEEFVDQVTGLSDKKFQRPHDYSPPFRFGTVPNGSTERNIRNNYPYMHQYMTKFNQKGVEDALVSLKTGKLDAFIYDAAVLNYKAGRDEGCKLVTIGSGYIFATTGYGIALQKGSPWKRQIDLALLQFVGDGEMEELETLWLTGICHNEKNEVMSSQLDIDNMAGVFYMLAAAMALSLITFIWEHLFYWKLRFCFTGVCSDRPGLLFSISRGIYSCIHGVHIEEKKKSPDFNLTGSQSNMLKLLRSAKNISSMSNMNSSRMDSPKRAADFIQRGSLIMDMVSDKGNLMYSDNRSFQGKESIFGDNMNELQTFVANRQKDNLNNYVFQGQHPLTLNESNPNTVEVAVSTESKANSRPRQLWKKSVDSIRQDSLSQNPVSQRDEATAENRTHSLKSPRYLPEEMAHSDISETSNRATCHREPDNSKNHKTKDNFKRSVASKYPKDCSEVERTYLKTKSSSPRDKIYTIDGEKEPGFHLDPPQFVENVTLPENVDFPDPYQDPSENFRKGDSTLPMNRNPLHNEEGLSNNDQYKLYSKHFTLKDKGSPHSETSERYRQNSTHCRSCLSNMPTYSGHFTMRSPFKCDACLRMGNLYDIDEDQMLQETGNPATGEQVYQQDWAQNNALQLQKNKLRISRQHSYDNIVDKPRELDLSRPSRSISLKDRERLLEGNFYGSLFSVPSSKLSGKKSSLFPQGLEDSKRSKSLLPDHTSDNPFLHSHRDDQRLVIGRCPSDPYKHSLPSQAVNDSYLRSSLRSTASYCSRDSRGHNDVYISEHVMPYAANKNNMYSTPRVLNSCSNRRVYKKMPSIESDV

Biological target: Glutamate receptor ionotropic, NMDA 2A (Homo sapiens, UniProt Q05586+Q12879)
Experiment: Antagonistic activity against NR1A/2A receptors in frog oocytes
Format: functional, cell-based, Oocyte

c1ccc(CC2CCN(CCSc3nc4ccccc4[nH]3)CC2)cc1
IC50: 75 µM
